Experimental data: PubChem BioAssay AID2130 (The Scripps Research Institute Molecular Screening Center, 2009)
Only a part is listed here, and it is no random draw. The source made the active and inactive calls.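 The calls were made as follows: active = inhibition above the campaign mean of all compounds plus 3 SD (cut at about 26% in these data); inactive = the rest.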

Amino acid sequences for entries named in this document (tags omitted). A change or cut given only in a name is not applied to a line headed by its entry.
UniProt Q9Y570: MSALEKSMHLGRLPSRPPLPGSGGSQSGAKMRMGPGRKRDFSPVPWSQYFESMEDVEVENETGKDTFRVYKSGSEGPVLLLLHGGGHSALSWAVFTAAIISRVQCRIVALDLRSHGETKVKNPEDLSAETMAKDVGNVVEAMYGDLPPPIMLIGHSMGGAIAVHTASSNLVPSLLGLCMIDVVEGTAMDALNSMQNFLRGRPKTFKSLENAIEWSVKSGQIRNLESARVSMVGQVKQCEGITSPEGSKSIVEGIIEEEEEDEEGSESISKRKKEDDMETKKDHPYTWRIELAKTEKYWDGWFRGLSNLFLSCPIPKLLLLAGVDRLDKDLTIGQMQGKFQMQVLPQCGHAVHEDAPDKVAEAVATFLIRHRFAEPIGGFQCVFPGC

Each compound was assayed against Protein phosphatase methylesterase 1 (Homo sapiens) (UniProt Q9Y570) (assay: human PME-1 methylesterase blockers – biochemical, fluorescence polarization, FP-Rh probe, HTS, primary screen (AID 2130;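 also: competitive labeling of PME-1 active site by serine hydrolase directed probe; 0% = PME-1 with DMSO and 100% = wells lacking PME-1 enzyme; inhibitors block probe labeling so polarization falls and inhibition rises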)). Conditions: recombinant PME-1, FP-Rh probe fluorescence polarization; at 5.9 µM; stronger effect = higher value.

Structure (SMILES) | inhibition
O=[As](O)(c1ccccc1Br)c1ccccc1Br | inactive: -4.33%
COc1ccccc1CNC(=O)COC(=O)C(O)(c1ccccc1)c1ccccc1 | inactive: 0.78%
CC(C)(C)C(=O)NC(Sc1ncccn1)C(Cl)(Cl)Cl (centres undefined) | inactive: 0.71%
Clc1n[nH]nc1-c1nn[nH][15n]1 | inactive: -4.15%
CCOP(=O)(NC(=NC(C)c1ccccc1)NC(C)c1ccccc1)OCC (centres undefined) | inactive: -0.23%
O=P1(Nc2ccccn2)COc2ccccc2OC1 | inactive: -1.23%
CCC1=CC2Cc3nc4ccc(Cl)cc4c(N)c3C(C1)C2 (centres undefined) | inactive: -122%
CN(CCCl)Cc1cc(Cl)c(NC2=NCCN2)c(Cl)c1 | inactive: -1.18%
CCOP(=O)(Nc1ccc(C)cn1)OCC | inactive: 0.01%
Nc1cccc([As](=O)(O)c2ccccc2)c1 | inactive: -4.41%
O=P1(Nc2ccc(Br)cn2)COc2ccccc2OC1 | inactive: -0.27%
NS(=O)(=O)c1cccc(NC(=O)COC(=O)C(O)(c2ccccc2)c2ccccc2)c1 | inactive: 3.24%
Cc1ccc(OCC(=O)OC2CN3CCC2CC3)cc1 (centres undefined) | inactive: -0.72%
O=[As](O)(c1cccs1)c1cccs1 | inactive: -2.19%
O=P1(Nc2ncccn2)COc2ccccc2OC1 | inactive: 6.61%
CN(C)C1(CNC(=O)c2ccc(S(C)(=O)=O)cc2)CCCCC1 | inactive: 3.32%
O=C(/C=C/c1ccccc1)OC1CN2CCC1CC2 (centres undefined) | inactive: -4.41%
CC1CCC(C(C)C)C(OP(=O)(Nc2ccccn2)c2ccccc2)C1 (centres undefined) | inactive: 4.78%
Cc1ccc(C(=O)OC2CN3CCC2CC3)cc1 (centres undefined) | inactive: -7.87%
Cc1nn(-c2ccccc2)c2c1P(=O)(N1CCOCC1)N(C)C(c1ccccc1)=N2 (centres undefined) | inactive: -0.66%
CN(C(=O)Cc1ccccc1)[C@@H]1CC[C@]2(CCCO2)C[C@H]1N1CCCC1 | inactive: -0.48%
CCOP1(=S)c2c(C)nn(CCC#N)c2N=C(c2ccc(F)cc2)N1C (centres undefined) | inactive: 0.65%

Structure (SMILES) | inhibition
N#CCCN(C(=O)COC(=O)C(O)(c1ccccc1)c1ccccc1)c1ccc(F)cc1 | inactive: -3.33%
CN(C(=O)Cc1ccc(Cl)c(Cl)c1)[C@H]1CC[C@@]2(CCCO2)C[C@@H]1N1CCCC1 | inactive: -1.35%
CN(C)C(=O)c1cc([N+](=O)[O-])cc2c1-c1c(cc([N+](=O)[O-])cc1[N+](=O)[O-])C2=O | active: 54.6%
O=[N+]([O-])c1ccc2c(c1)nnn2O | inactive: 3.66%
NC(=O)Nc1ccc([As](=O)(O)O)cc1 | inactive: -0.66%
Nc1ccccc1[As](=O)(O)c1ccccc1 | inactive: -1.5%
O=C(O)COc1ccc([As](=O)(O)O)cc1[N+](=O)[O-] | inactive: -4.08%
O=P(Nc1nccs1)(c1ccccc1)c1nc2ccccc2s1 (centres undefined) | inactive: -3.65%
O=P(Nc1nccs1)(Oc1ccccc1)Oc1ccccc1 | inactive: -0.22%
CCOP1(=S)c2c(C)nn(CCC#N)c2N=C(c2ccccc2F)N1C (centres undefined) | inactive: 4.59%
CS(=O)(=O)c1cc([N+](=O)[O-])c2no[n+]([O-])c2c1 | inactive: -3.06%
CCOP(=O)(Nc1cccc2ccccc12)OCC | inactive: 0.04%
COc1cc(C2NCCC3(OCCO3)C2(C)C)cc(OC)c1OC (centres undefined) | inactive: 2.16%
Cc1ccc(NCCc2c([N+](=O)[O-])cc([N+](=O)[O-])cc2[N+](=O)[O-])cc1 | inactive: 2.46%
Nc1cccc2c([As](=O)(O)O)cccc12 | inactive: 24.1%
CCCOP(=S)(Nc1nc(N)cc(=O)[nH]1)OCCC | inactive: -1.02%
O=[As](O)(c1cccc(O)c1)c1cccc(O)c1 | inactive: -0.56%
Cc1cccc(OCC(=O)OC2CN3CCC2CC3)c1 (centres undefined) | inactive: -0.93%
O=C(OC1CN2CCC1CC2)c1ccc(Cl)cc1 (centres undefined) | inactive: 2.79%
CS(=O)(=O)c1ccc(Cl)c(NC(=O)COC(=O)C(O)(c2ccccc2)c2ccccc2)c1 | inactive: 7.3%
COc1cc(C(=O)NCC2(N3CCOCC3)CCCCC2)cc(Cl)c1OC(C)C | inactive: 0.09%
O=[As](O)(O)c1cccnc1 | inactive: 1.84%
